SMILES strings stand for the structures. This is one part of the list.

This test concerns A. baumannii ATCC 17978. The test can be described thus: relative growth (fraction of control); higher = less inhibition. As to conditions: 50 µM.
For the compound `COc1ccc(NC(=O)N(C)C[C@H]2Oc3cc(C#CCN(C)C)ccc3S(=O)(=O)N([C@H](C)CO)C[C@@H]2C)cc1`, the relative growth came out at 0.84.

Turning to `COCC(=O)N(C)C[C@@H]1Oc2cc(-c3ccc(OC)cc3)ccc2S(=O)(=O)N([C@@H](C)CO)C[C@H]1C`, the relative growth was 0.975.

In the case of `O=C1O[C@@H](c2ccccc2)[C@@H](c2ccccc2)N2[C@@H](c3ccc(O)cc3)[C@]3(C(=O)Nc4ccc(C#CC5(O)CCCCCC5)cc43)[C@@H](C(=O)N3CCCCCCC3)[C@H]12`, the relative growth was found to be 0.84.

`COCC(=O)Nc1ccc2c(c1)C(=O)N(C)[C@H]1CC[C@H](CC(=O)N3CCc4ccccc4C3)O[C@H]1CO2` returned a relative growth of 1.04.

Compound `CC(=O)OC[C@]12[C@H](OC(=O)c3ccccc3)C[C@@H]3[C@@H](OC(C)=O)[C@]1(OC3(C)C)[C@H](C)C[C@H](OC(C)=O)[C@@H]2OC(C)=O` returned a relative growth of 0.869.

On to `CC1(C)C2CC[C@]3(C)C(C(=O)C=C4[C@@H]5C[C@@](C)(C(=O)O)CC[C@]5(C)CC[C@]43C)[C@@]2(C)CC[C@@H]1O` (some centres undefined), for which the relative growth was 1.21.

`O=C(O)C[C@H]1NC(=O)c2ccccc21`: the relative growth amounted to 0.928.

Take `COc1c(Cl)c(C)c(C(=O)Oc2cc(C)c(C(=O)O)c(O)c2)c(O)c1Cl`: the relative growth amounted to 0.99.

With `COc1ccc(NC(=O)N2C[C@H](O)COC[C@H]3O[C@H](CC(=O)NC4Cc5ccccc5C4)CC[C@@H]32)cc1`, the relative growth was determined as 0.969.

Compound `O=C(N[C@@H]1C=C[C@@H](CC(=O)N2CCOCC2)O[C@@H]1CO)c1ccccn1` had a relative growth of 0.809.

Take `CCCN1CCC2(CC1)NC(=O)N(CC(=O)N1CCN(C(=O)OCC)CC1)C2=O`: the relative growth is 1.02.

As to `CC(C)NC(=O)N[C@@H]1C=C[C@@H](CC(=O)O)O[C@H]1CO`, the relative growth is 1.14.

In turn, `C=C[C@H]1CN2CC[C@H]1C[C@@H]2[C@H](O)c1ccnc2ccc(OC)cc12` registered a relative growth of 0.976.

For the compound `CN1C(=O)CC(C)(c2ccccc2)C1=O` (centres undefined), the relative growth came to 0.962.

On to `NC(=O)NCC#Cc1ccc2c(c1)[C@]1(C(=O)N2)[C@H](c2ccc(O)cc2)N2[C@H](c3ccccc3)[C@H](c3ccccc3)OC(=O)[C@H]2[C@@H]1C(N)=O`, for which the relative growth worked out at 0.964.

`COCC#Cc1cnc2c(c1)C(=O)N([C@H](C)CO)C[C@H](C)[C@H](CN(C)C(=O)Nc1cc(F)ccc1F)O2` came in with a relative growth of 1.04.

Regarding `NNC(=O)Cc1nc2ccccc2[nH]1`, the relative growth amounted to 0.719.

Compound `COc1ccc(S(=O)(=O)N(C)C[C@@H]2Oc3c(NC(=O)Nc4cccc5ccccc45)cccc3C(=O)N([C@@H](C)CO)C[C@H]2C)c(OC)c1` returned a relative growth of 0.862.

`C[C@H]1CN([C@@H](C)CO)S(=O)(=O)c2ccc(-c3cccc(C(=O)N(C)C)c3)cc2O[C@H]1CN(C)C(=O)Cc1ccccn1` had a relative growth of 0.95.

`O=C(C[C@H]1C[C@H]2c3cc(NC(=O)C4CCOCC4)ccc3O[C@H]2[C@H](CO)O1)NCc1ccc2c(c1)OCO2`: the relative growth was 1.04.

As for `Cc1ccc(S(=O)(=O)NCC[C@H]2CC[C@@H](NS(=O)(=O)c3ccccc3Cl)[C@@H](CO)O2)cc1`, the relative growth worked out at 0.905.

In the case of `Cc1cccc(C)c1NC(=O)c1ccccc1C(=O)O`, the relative growth came out at 1.04.

In turn, `NNC(=O)c1ccccc1O` yielded a relative growth of 0.751.

Regarding `CC(C)COc1c[nH]c(CO)cc1=O`, the relative growth stood at 1.03.

For `FCOC(C(F)(F)F)C(F)(F)F`, the relative growth amounted to 0.949.

Regarding `O=C(O)c1cc(O)c2cccc(O)c2n1`, the relative growth was found to be 0.895.

In turn, `CN(C)CC(=O)N[C@H]1CC[C@@H](CCn2cc(CN(C)C)nn2)O[C@H]1CO` showed a relative growth of 1.01.

`CC(C)NC(=O)N[C@@H]1CC[C@@H](CCN)O[C@@H]1CO` showed a relative growth of 1.08.

In turn, `Cc1nc(C2C(=N)N([C@H]3CS(=O)(=O)C[C@@H]3O)CC2=O)sc1C` (some centres undefined) displayed a relative growth of 0.916.

The compound `O=C(CCCCCCC(=O)Nc1ccccc1O)N/N=C/c1ccc(N(c2ccccc2)c2ccccc2)cc1` yielded a relative growth of 1.27.

As to `Nc1ncnc(NCCN2CCOCC2)c1[N+](=O)[O-]`, the relative growth was 0.972.

As to `CCCCCC1C(=O)CCC1CC(=O)OC` (centres undefined), the relative growth was 1.28.

`NCC[C@H]1CC[C@@H](NC(=O)C2CCCC2)[C@@H](CO)O1` returned a relative growth of 1.07.

`C=C(CC)C(=O)c1ccc(OCC(=O)O)c(Cl)c1Cl` yielded a relative growth of 1.12.

On to `O=C(C[C@H]1CC[C@H](NS(=O)(=O)c2ccccc2)[C@H](CO)O1)NCc1ccncn1`, for which the relative growth worked out at 1.04.

As to `CCS(=O)(=O)NCC[C@H]1CC[C@H](NC(=O)C2CCOCC2)[C@H](CO)O1`, the relative growth came to 1.

As to `O=C(C[C@H]1C[C@H]2c3cc(NC(=O)Nc4ccc(C(F)(F)F)cc4)ccc3O[C@H]2[C@@H](CO)O1)NCc1ccc(Cl)cc1`, the relative growth worked out at 0.777.

Compound `Nc1ccc(S(=O)(=O)NC(=O)c2ccccc2)cc1` registered a relative growth of 1.03.

Compound `C[C@@H]1CN([C@H](C)CO)C(=O)CCCn2nncc2CO[C@H]1CN(C)Cc1ccc2c(c1)OCCN2C` gave a relative growth of 0.916.

As for `CN(C)C(=O)C[C@@H]1C=C[C@H](NC(=O)C2CC2)[C@@H](CO)O1`, the relative growth came out at 0.929.

The compound `Cc1ccc(S(=O)(=O)N(C)C[C@@H]2Oc3ncc(-c4ccncc4)cc3C(=O)N([C@H](C)CO)C[C@H]2C)cc1` returned a relative growth of 0.995.

`Cc1ccc(S(=O)(=O)c2c[nH]c(=O)[nH]2)cc1` showed a relative growth of 0.947.

For `NC[C@H](c1ccco1)N1CCc2ccccc2C1`, the relative growth stood at 0.891.

Consider `O=C1O[C@H](c2ccccc2)[C@H](c2ccccc2)N2[C@H]1[C@@H](C(=O)N1CCCCCCC1)[C@]1(C(=O)Nc3ccc(C#CCCO)cc31)[C@H]2c1ccc(OCCO)cc1`, for which the relative growth is 1.09.

In turn, `CC(=O)NCCCC[C@@H]1NC(=O)[C@@H]2C[C@H](C(=O)NCCCCCN)[C@H](c3cccc(OCCO)c3)N2C1=O` displayed a relative growth of 1.07.

`CCCCCCC#C[Si](O[C@H](c1ccccc1)c1cn([C@H](CO)Cc2ccccc2)nn1)(C(C)C)C(C)C` registered a relative growth of 0.907.

As for `C1N2CN3CN1CN(C2)C3`, the relative growth was found to be 0.97.

`O=C(O)C1=C[C@@H](O)[C@@H](O)[C@H](O)C1` returned a relative growth of 0.942.

Compound `c1ccc(Nc2nc3c(ccc4ccccc43)s2)cc1` displayed a relative growth of 1.18.

For `C[Se]CC[C@H](N)C(=O)O`, the relative growth stood at 0.931.

`CO[C@@H]1CN(C)C(=O)c2cc(NC(=O)NC(C)C)ccc2OC[C@H](C)N(Cc2ccc(-c3ccccn3)cc2)C[C@H]1C` displayed a relative growth of 1.11.

Compound `N[C@@H](CC(=O)O)C(=O)O` gave a relative growth of 0.926.

The compound `O=C(N[C@@H]1CC[C@H](CCNS(=O)(=O)c2ccccc2)O[C@@H]1CO)c1cnccn1` registered a relative growth of 1.07.

`CCCNC(=O)N1C[C@H](C)[C@H](OC)CN(C)C(=O)c2cc(NS(=O)(=O)CC(F)(F)F)ccc2OC[C@@H]1C` registered a relative growth of 0.973.

In turn, `CCCNC(=O)C[C@@H]1CC[C@@H]2[C@H](COC[C@H](O)CN2S(=O)(=O)c2ccc(Oc3ccccc3)cc2)O1` came in with a relative growth of 0.977.

`Cc1ncc([N+](=O)[O-])n1C` gave a relative growth of 0.906.

`CNc1ncnc2c1ncn2[C@@H]1O[C@H](CO)[C@@H](O)[C@H]1O` displayed a relative growth of 0.886.

With `CC(=O)O[C@H]1CC[C@]2(C)C3CC[C@@]4(C)C(CC5O[C@@]6(CCC(C)CO6)[C@@H](C)C54)C3CC[C@@H]2C1` (some centres undefined), the relative growth worked out at 1.06.

For the compound `Cc1nn(C)c(C)c1Nc1nnc(N)[nH]1`, the relative growth was determined as 1.06.

In the case of `CCCCN1CNC(=S)NC1`, the relative growth turned out to be 0.783.

The compound `CCC(C)C1NC(=O)C(CCN)NC(=O)C(NC(=O)C(CCN)NC(=O)C(NC(=O)C(CCN)NC(=O)CCCCC(C)C)C(C)O)CCNC(=O)C(C(C)O)NC(=O)C(CCN)NC(=O)C(CCN)NC(=O)C(C(C)CC)NC1=O.O=S(=O)(O)O.O=S(=O)(O)O` (centres undefined) returned a relative growth of 0.134.

For the compound `O=C(C[C@H]1CC[C@@H](NC(=O)CN2CCOCC2)[C@@H](CO)O1)NC1CCC1`, the relative growth amounted to 1.26.

In turn, `COCC(=O)N1C[C@@H](C)[C@H](OC)CN(C)C(=O)c2cc(NC(=O)Nc3ccccc3)ccc2OC[C@@H]1C` showed a relative growth of 0.857.

Regarding `CN(C)CC/C=C1/c2ccccc2COc2ccc(CC(=O)O)cc21.Cl`, the relative growth stood at 0.144.

In turn, `C=CCc1ccc(O)c(OC)c1` came in with a relative growth of 0.683.

Take `COc1ccccc1CCCCN`: the relative growth came to 0.803.

The compound `O=S(=O)(NCC[C@H]1CC[C@H](NS(=O)(=O)c2cccc(Cl)c2)[C@@H](CO)O1)c1cccc(F)c1` gave a relative growth of 0.998.

Compound `CCc1nc2[nH]c(C)cc(=O)n2n1` displayed a relative growth of 0.924.

Compound `CN(C)Cc1cn(CC[C@@H]2CC[C@@H](NS(=O)(=O)c3ccccc3)[C@H](CO)O2)nn1` displayed a relative growth of 1.02.

The compound `COC(=O)[C@@H]1C[C@H](C#N)N[C@@H]1c1ccccn1` displayed a relative growth of 0.95.

The compound `CCn1cc(C(=O)O)c(=O)c2cc(F)c(N3CCNCC3)nc21` came in with a relative growth of 0.155.

In turn, `C[C@H]1CN([C@@H](C)CO)S(=O)(=O)c2ccc(-c3ccc(F)cc3)cc2O[C@@H]1CN(C)C(=O)C1CCOCC1` had a relative growth of 0.967.

As for `O=C(C[C@H]1C[C@@H]2c3cc(NC(=O)c4ccc5c(c4)OCO5)ccc3O[C@@H]2[C@H](CO)O1)NCc1ccccn1`, the relative growth was 1.05.

As for `CC[C@@H](N)Cn1c(=O)oc2ccccc21`, the relative growth was 0.868.

In the case of `O=C(N[C@@H]1CC[C@H](CCn2cc(C3(O)CCCC3)nn2)O[C@@H]1CO)C1CCOCC1`, the relative growth came out at 0.999.

With `CCOC(=O)C1CCN(S(=O)(=O)c2c(C)n(C)c(=O)n(C)c2=O)CC1`, the relative growth was determined as 0.849.

For `CN1C(=O)c2cc(NC(=O)C3CCC3)ccc2OC[C@H]2O[C@@H](CC(=O)NCCc3ccncc3)CC[C@H]21`, the relative growth amounted to 1.12.

For the compound `CC(C)C#Cc1ccc2c(c1)O[C@@H](CN(C)C(=O)c1cnccn1)[C@@H](C)CN([C@H](C)CO)S2(=O)=O`, the relative growth worked out at 1.

In turn, `C[C@H]1CN([C@@H](C)CO)C(=O)c2cc(C#Cc3ccc(F)cc3)cnc2O[C@@H]1CN(C)Cc1ccccn1` had a relative growth of 0.959.

Regarding `COCC#Cc1ccc2c(c1)O[C@H](CN(C)Cc1ccc(F)cc1)[C@@H](C)CN([C@@H](C)CO)S2(=O)=O`, the relative growth stood at 1.21.

Compound `CC(CCC(=O)O)[C@H]1CCC2C3C[C@H](O)[C@@H]4C[C@H](O)CC[C@]4(C)C3CC[C@@]21C` (stereo partly drawn) [alpha-HYDROXYDEOXYCHOLIC ACID] registered a relative growth of 1.2.

For the compound `O=C(CN1CCOCC1)N[C@@H]1CC[C@H](CCNS(=O)(=O)c2ccccc2F)O[C@H]1CO`, the relative growth stood at 0.842.

`C/C=C/c1ccc2c(c1)O[C@@H](CN(C)S(=O)(=O)c1ccccc1OC)[C@@H](C)CN([C@@H](C)CO)S2(=O)=O` showed a relative growth of 1.08.

Compound `CO[C@H]1CN(C)C(=O)c2ccc(NC(=O)C3CCOCC3)cc2OC[C@@H](C)N(Cc2cccnc2)C[C@H]1C` came in with a relative growth of 1.28.
